# Values quoted from earlier work in patent publication US9689841B2, “Fluorescent pI markers for isoelectric focusing separations and fluorescent labeling” (The Texas A&M University System, priority 2011, dated 2017).
# Conditions: second (higher) of the two pKa values; cited from earlier work
smiles,measurement,value
O=C(O)c1cccnc1 [pyridine-3-carboxylic acid],pKa,4.66
